Test results as given in paper PMC8151276, “An Integrated Approach toward NanoBRET Tracers for Analysis of GPCR Ligand Engagement” (Molecules, 2021).

Chains of the proteins cited; added tags and fusions are not shown. Lines headed by an entry give the natural chain unless they say otherwise; changes in a name come on top.
UniProt Q9GZQ6: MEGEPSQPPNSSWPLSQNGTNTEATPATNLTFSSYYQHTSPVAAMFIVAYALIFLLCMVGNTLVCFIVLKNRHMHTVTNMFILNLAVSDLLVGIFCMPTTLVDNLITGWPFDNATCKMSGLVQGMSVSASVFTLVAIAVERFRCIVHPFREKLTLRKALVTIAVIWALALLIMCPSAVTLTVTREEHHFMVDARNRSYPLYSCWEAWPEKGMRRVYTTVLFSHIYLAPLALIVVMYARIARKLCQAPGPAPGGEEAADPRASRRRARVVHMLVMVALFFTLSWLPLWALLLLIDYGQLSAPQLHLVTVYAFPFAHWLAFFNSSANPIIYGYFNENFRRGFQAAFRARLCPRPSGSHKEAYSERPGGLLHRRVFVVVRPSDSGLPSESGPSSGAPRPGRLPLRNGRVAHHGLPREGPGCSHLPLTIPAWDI
UniProt P08172, whole entry: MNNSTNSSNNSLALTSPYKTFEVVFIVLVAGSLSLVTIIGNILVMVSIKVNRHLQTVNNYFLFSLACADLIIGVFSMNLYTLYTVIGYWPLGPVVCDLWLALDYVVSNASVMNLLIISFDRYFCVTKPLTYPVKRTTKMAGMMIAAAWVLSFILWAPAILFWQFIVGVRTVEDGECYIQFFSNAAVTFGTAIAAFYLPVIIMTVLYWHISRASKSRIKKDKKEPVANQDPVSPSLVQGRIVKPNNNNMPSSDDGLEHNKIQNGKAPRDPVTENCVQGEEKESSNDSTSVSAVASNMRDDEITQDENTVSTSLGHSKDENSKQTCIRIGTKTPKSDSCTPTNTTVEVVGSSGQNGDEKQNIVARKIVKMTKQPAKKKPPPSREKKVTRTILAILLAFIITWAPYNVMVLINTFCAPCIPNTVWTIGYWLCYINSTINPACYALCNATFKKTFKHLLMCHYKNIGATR
UniProt P25100, whole entry: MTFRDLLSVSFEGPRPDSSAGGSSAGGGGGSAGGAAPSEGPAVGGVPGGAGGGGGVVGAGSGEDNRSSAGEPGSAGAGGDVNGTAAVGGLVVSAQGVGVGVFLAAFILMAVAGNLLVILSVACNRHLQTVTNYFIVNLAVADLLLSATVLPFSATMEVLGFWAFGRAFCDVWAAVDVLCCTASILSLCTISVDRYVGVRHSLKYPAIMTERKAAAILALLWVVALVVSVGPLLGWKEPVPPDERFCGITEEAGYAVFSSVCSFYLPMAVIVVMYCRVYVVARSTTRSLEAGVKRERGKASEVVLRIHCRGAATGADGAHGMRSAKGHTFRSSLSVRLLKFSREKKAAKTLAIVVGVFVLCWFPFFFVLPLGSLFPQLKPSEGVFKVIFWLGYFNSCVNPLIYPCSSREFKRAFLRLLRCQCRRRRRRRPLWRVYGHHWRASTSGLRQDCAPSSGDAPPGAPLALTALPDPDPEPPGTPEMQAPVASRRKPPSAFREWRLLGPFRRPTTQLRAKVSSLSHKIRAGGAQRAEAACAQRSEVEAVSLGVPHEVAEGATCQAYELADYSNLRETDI

Columns and labels:
Assay type in all cases: binding
NPFFR1 = molecular target: T1, NPFFR1 (Homo sapiens, UniProt Q9GZQ6); assay: NanoBRET screen HiBiT-NPFFR1 in HEK293; conditions: NPFFR1; tracer 1μM
T1 construct: purchased Promega (in-house HiBiT-GPCR construct library, NanoBRET)
Method: (§1) Each tracer candidate was screened across the entire library of HiBiT-GPCR constructs using NanoBRET as the detection modality. As depicted in Figure 4A, the specificity of interactions was evaluated through decrease in BRET due to competitive displacement of a bound tracer by excess parental compound. Each tracer was analyzed for binding to each HiBiT-GPCR fusion in the absence and in the presence of competing parental compound. Briefly, HEK293 cells were transfected with HiBiT-GPCR constructs diluted into promoterless DNA to reduce expression and maximize translocation to the cell surface. Each tracer candidate was then screened at concentrations of 1 μM and 0.1 μM across cells expressing these fusions. Cells were treated for 1.5 h with tracer either alone or in the presence of 20 μM competing parental compound (i.e., control). BRET was measured upon addition of purified LgBiT and subsequent complementation with HiBiT genetically fused to a GPCR. The specificity of interactions was assessed through a decrease in BRET signal due to competitive displacement of the bound tracer. To further gauge the robustness of these interactions, the fold response over the control (i.e., BRETtracer/BRETcontrol) was calculated. We chose a 1.5-fold response, which translates to ≥7-fold signal over noise as the minimal threshold required to score an interaction as positive. […]. Below we highlight the screening results obtained for our exemplary fluorescent tracers based on Clozapine, Amitriptyline and AZD1283.
HiBiT-GPCR DNA constructs were diluted in 10 mM Tris pH 8 to a final concentration of 0.01 μg/μL, arrayed in 96-well plates and stored at −20 °C. For transfection, HEK293 cells were suspended in Opti-MEM (without phenol red) supplemented with 2% fetal bovine serum (Seradigm) and 100 units/mL penicillin–streptomycin (Gibco) at a final concentration of 220,000 cells/mL and dispensed into white 96-well plates at 90 μL/well. Subsequent transfections and screens were carried using an Agilent Bravo Automated Liquid Handling Platform. First, the 96-well HiBiT DNA arrays were diluted 25-fold in Opti-MEM (without serum or phenol red) to a final concentration of 0.0004 μg/μL and 20 μL of the diluted DNAs were transferred into new 96-well plates. Next, promoterless carrier DNA (1 μg/μL) was diluted 25-fold (0.04 μg/μL) and then dispensed into the diluted arrays at 20 μL/well. Following brief mixing, Viafect transfection reagent (Promega) diluted 16-fold into Opti-MEM was dispensed into the plates at 40 μL/well. After mixing by pipetting, plates were incubated for 10 min on the pipetting station deck. The DNA-transfection reagent complexes were then added to plates containing cells. To facilitate the screen, 10 μL of DNA-transfection reagent complexes were added in duplicates to the top 4 and bottom 4 rows, resulting in two identical 48-well arrays per plate. Plates with transfected cells were incubated for 18–20 h at 37 °C/5% CO2. A screen of each tracer across the entire library using two different concentrations requires duplicate plates of transfected cells. Depending on the number of tracers being screened, transfections can be scaled up using the same ratios. The next day, for each tracer, four 20× screening solutions in tracer dilution buffer (Promega) were prepared: two duplicates at final concentration of 20 μM and two duplicates at a final concentration of 2 μM. A competing unmodified compound was added to one of each duplicate at a final concentration of 400 μM. […]

CHRM2 = molecular target: T2, CHRM2 (Homo sapiens, UniProt P08172); assay: NanoBRET screen HiBiT-CHRM2 in HEK293; conditions: tracer 0.1μM
T2 construct: purchased Promega (in-house HiBiT-GPCR construct library, NanoBRET)
Method: as §1, with “Below we highlight the screening results obtained for our exemplary fluorescent tracers based on Clozapine, Amitriptyline and AZD1283.” left out

P2RY8 = molecular target: T3, P2RY8 (Homo sapiens, UniProt Q86VZ1); assay: NanoBRET screen HiBiT-P2RY8 in HEK293; conditions: tracer 0.1μM
T3 construct: purchased Promega (in-house HiBiT-GPCR construct library, NanoBRET)
Method: as §1, with “Below we highlight the screening results obtained for our exemplary fluorescent tracers based on Clozapine, Amitriptyline and AZD1283.” left out

ADRA1D = molecular target: T4, ADRA1D (Homo sapiens, UniProt P25100); assay: NanoBRET screen HiBiT-ADRA1D in HEK293; conditions: tracer 0.1μM
T4 construct: purchased Promega (in-house HiBiT-GPCR construct library, NanoBRET)
Method: Each tracer candidate was screened across the entire library of HiBiT-GPCR constructs using NanoBRET as the detection modality. As depicted in Figure 4A, the specificity of interactions was evaluated through decrease in BRET due to competitive displacement of a bound tracer by excess parental compound. Each tracer was analyzed for binding to each HiBiT-GPCR fusion in the absence and in the presence of competing parental compound. Briefly, HEK293 cells were transfected with HiBiT-GPCR constructs diluted into promoterless DNA to reduce expression and maximize translocation to the cell surface. Each tracer candidate was then screened at concentrations of 1 μM and 0.1 μM across cells expressing these fusions. Cells were treated for 1.5 h with tracer either alone or in the presence of 20 μM competing parental compound (i.e., control). BRET was measured upon addition of purified LgBiT and subsequent complementation with HiBiT genetically fused to a GPCR. The specificity of interactions was assessed through a decrease in BRET signal due to competitive displacement of the bound tracer. To further gauge the robustness of these interactions, the fold response over the control (i.e., BRETtracer/BRETcontrol) was calculated. We chose a 1.5-fold response, which translates to ≥7-fold signal over noise as the minimal threshold required to score an interaction as positive.
HiBiT-GPCR DNA constructs were diluted in 10 mM Tris pH 8 to a final concentration of 0.01 μg/μL, arrayed in 96-well plates and stored at −20 °C. For transfection, HEK293 cells were suspended in Opti-MEM (without phenol red) supplemented with 2% fetal bovine serum (Seradigm) and 100 units/mL penicillin–streptomycin (Gibco) at a final concentration of 220,000 cells/mL and dispensed into white 96-well plates at 90 μL/well. Subsequent transfections and screens were carried using an Agilent Bravo Automated Liquid Handling Platform. […]

Measured: NanoBRET Fold Response

Cc1cc2c(s1)Nc1ccccc1N=C2N1CCN(CCCNC(=O)CCOCCOCCOCCOCCNC(=O)CCc2ccc3n2[B-](F)(F)[N+]2=C(c4ccc[nH]4)C=CC2=C3)CC1 [Olanzapine-a-2-NB590]
1.03: all assays above
